Structures are written as SMILES.

In this assay the target is T1, Tyrosine-protein phosphatase non-receptor type 1 (Homo sapiens, UniProt P18031).
T1 sequence (P18031 whole entry): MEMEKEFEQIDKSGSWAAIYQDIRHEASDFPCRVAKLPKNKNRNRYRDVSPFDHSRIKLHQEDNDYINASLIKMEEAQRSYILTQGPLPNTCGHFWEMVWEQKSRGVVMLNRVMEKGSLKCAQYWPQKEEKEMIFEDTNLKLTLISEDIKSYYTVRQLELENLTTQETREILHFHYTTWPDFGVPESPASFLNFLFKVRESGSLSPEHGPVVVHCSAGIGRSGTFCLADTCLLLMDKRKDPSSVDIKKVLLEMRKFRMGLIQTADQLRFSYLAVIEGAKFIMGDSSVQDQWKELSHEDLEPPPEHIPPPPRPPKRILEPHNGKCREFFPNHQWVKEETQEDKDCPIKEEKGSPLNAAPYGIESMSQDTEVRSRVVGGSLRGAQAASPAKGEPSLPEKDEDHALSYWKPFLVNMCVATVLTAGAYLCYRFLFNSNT
In words: In vitro inhibitory activity against human recombinant protein tyrosine phosphatase 1b (PTP1B). Summed up: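 Recombinant human PTP1B, diluted in pH 7.4 Tris-HCl/EDTA/β-mercaptoethanol buffer, preincubated 10 min at 37 °C with compound in HEPES pH 7.4. Substrate was the insulin receptor 1142-1153 dodecapeptide phosphorylated at Y1146/1150/1151, 50 µM final. Reaction ran 30 min at 37 °C. Released phosphate was read by malachite green-ammonium molybdate at 650 nm, in quadruplicate. IC50 came from four-parameter logistic regression.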

As for `O=C(O)[C@@H](Cc1ccccc1)Oc1ccc(-c2ccc(-c3c(Cc4ccccc4)sc4ccccc34)cc2)cc1`, the IC50 was determined as 95 nM.
As to `O=C(c1ccccc1)c1oc2ccccc2c1-c1ccc(-c2ccc(O[C@H](Cc3ccccc3)C(=O)O)cc2)cc1`, the half-maximal inhibitory concentration (IC50) is 680 nM.
For the compound `COc1ccc(Cc2sc3ccccc3c2-c2ccc(-c3ccc(O[C@H](Cc4ccccc4)C(=O)O)cc3)cc2)cc1`, the IC50 came to 77 nM.

The record behind these values is ChEMBL document CHEMBL1132993, “Novel benzofuran and benzothiophene biphenyls as inhibitors of protein tyrosine phosphatase 1B with antihyperglycemic properties” (J Med Chem, 2000).
